Laboratory results reported in US20050191283A1, “Methods of treating NFAT-related disorders” (priority 2003, published 2005).

Tested on: IFN-γ expression in UCB T lymphocytes
Assay: Intracellular IFN-γ staining in gated CD3+ cells of UCB MNC
Format: cell-based, human
Conditions: ConA 24 h, TNF-A (1 ng/ml) or IL-2 added in place of IFN-γ
Method: Human umbilical cord blood from full-term deliveries by vaginal or caesarean sections and adult peripheral blood from healthy donors was collected according to guidelines by the Institutional Review Board at University Hospitals of Cleveland. Mononuclear cells (MNC) were isolated by gradient centrifugation, as previously described (6) and used immediately fresh.
Total MNC were stimulated in bulk culture as previously described (6). Briefly, 2×10^6 cells/ml were stimulated with 2 μg/ml of concanavalin A (ConA) (Sigma Chemical Co, St Louis, Mo.) in complete RPMI medium (Gibco BRL, Gaithersburg, Md.), containing 10% fetal bovine serum (Gibco BRL), 1 mM Sodium-pyruvate, 0.1 mM nonessential amino acids, 10 mM HEPES and 58 μM 2-mercaptoethanol (Sigma Chemical Co), in presence or absence of the manufacturer's recommended concentration of 1 μg/ml of cyclosporin A (CsA) (Sigma Chemical Co), as previously described (7). Where specified, IFN-γ (Roche, Indianapolis, Ind.) was added at indicated concentrations, or neutralizing anti-IFN-γ antibody (R&D Systems, Minneapolis, Minn.) was added at a concentration of 0.25-2 μg/ml. […]
Intracellular IFN-γ staining was performed as described previously (6, 7). […] 20,000-80,000 events were acquired on a calibrated Elite ESP flow cytometer (Coulter, Miami, Fla.) and data were analyzed with WinList software (Verity Software House Inc, Topsham, Minn.). […]

With “IL-2: cytokine added during stimulation as specificity control” the “upregulation of IFN-γ expression” value was “did not result in upregulation of IFN-γ expression”.
